Laboratory results: paper PMC7046148 (Scientific Reports, 2020)

Sequences of proteins named here, by UniProt entry; tags and fusion partners are left off.
UniProt Q9UJQ4, whole entry G416A: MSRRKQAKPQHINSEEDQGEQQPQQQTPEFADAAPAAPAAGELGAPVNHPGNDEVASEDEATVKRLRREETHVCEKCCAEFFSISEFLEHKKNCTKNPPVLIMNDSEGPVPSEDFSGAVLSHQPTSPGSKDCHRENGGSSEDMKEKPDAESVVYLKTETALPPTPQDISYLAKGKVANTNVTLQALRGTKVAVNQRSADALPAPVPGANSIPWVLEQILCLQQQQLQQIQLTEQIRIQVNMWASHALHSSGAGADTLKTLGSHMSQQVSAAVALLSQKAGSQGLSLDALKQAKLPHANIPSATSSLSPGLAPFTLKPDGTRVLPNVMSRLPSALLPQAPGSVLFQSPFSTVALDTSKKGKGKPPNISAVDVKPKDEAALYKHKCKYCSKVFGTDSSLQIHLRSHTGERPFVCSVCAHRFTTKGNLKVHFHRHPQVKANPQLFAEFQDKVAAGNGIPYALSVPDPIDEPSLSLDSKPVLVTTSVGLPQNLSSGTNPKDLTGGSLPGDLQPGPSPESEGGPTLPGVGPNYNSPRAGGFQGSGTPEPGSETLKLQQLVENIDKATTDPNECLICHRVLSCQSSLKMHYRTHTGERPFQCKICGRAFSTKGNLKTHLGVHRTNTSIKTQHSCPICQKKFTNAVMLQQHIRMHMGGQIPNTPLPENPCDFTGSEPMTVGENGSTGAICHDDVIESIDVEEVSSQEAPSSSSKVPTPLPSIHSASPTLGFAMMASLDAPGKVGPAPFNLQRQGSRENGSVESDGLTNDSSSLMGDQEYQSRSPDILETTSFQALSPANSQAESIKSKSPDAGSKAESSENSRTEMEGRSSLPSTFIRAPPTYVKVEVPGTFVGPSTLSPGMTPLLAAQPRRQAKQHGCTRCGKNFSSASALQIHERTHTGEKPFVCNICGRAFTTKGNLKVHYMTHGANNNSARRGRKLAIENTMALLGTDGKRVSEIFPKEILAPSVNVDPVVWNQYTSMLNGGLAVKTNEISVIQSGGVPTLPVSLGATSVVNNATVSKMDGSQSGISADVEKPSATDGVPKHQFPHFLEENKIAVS

Key:
SALL4^G416A = target: T1, SALL4^G416A (Homo sapiens, UniProt Q9UJQ4, G416A); test: SALL4 MFI by high content imaging, XCL-1 SALL4^G416A hiPSCs; assay type: cell-based; settings: SALL4^G416A hiPSC clone, 8 h of treatment
T1 construct: parental hiPSCs were engineered to express a homozygous G416A mutation in the endogenous SALL4 locus; endogenous in cells; host or cells: XCL-1 SALL4^G416A hiPSC clone (1E6), CRISPR/Cas9 knock-in at the endogenous locus
From the text: High content imaging analysis of SALL4 immunofluorescence with DAPI counterstaining in hiPSCs. […] Data represent the mean +/− SEM from 2 independent experiments.

human SALL4 = target: T2, human SALL4 (Homo sapiens, UniProt Q9UJQ4); test: Immunoblot of SALL4 degradation in Lenti-x 293 CRBN-/- cells expressing human CRBN variants; assay type: cell-based
T2 construct: expressed in transfected cells; host or cells: Lenti-x 293 CRBN CRISPR KO (CRBN-/-) cells stably expressing human SALL4, transiently transfected with FLAG-CRBN variants

Compound: Nc1cccc2c1CN(C1CCC(=O)NC1=O)C2=O (centres unmarked) [Lenalidomide, lenalidomide]
- effect on SALL4 MFI (SALL4^G416A): unchanged
- SALL4 degradation in human cells expressing CRBN with the V388I mutation (human SALL4): failed to induce SALL4 degradation
